Key:
FosA3 W34A = details: p < 0.05
FosA3 W46A = details: p < 0.05

## O=c1[nH]n2cc(-c3n[nH]c(-c4cnc5c(Br)c(=O)[nH]n5c4)c3[N+](=O)[O-])cnc2c1Br [ANY1, 3-bromo-6-[3-(3-bromo-2-oxo-1H-pyrazolo[1,5-a]pyrimidin-6-yl)-4-nitro-1H-pyrazol-5-yl]-1H-pyrazolo[1,5-a]pyrimidin-2-one]
FosA3 W34A
  Fold-Change in Kd (vs WT): 6.0
FosA3 W46A
  Fold-Change in Kd (vs WT): 5.6

— patent US10980811B2, “Reversal of fosfomycin resistance” (University of Pittsburgh—Of the Commonwealth System of …, priority 2017, dated 2021)
